Usually IC50 stands for the point on the concentration scale where inhibition reaches its midpoint.

By UniProt entry, the sequences of proteins in these tests, tags left out.
UniProt P35408, whole entry: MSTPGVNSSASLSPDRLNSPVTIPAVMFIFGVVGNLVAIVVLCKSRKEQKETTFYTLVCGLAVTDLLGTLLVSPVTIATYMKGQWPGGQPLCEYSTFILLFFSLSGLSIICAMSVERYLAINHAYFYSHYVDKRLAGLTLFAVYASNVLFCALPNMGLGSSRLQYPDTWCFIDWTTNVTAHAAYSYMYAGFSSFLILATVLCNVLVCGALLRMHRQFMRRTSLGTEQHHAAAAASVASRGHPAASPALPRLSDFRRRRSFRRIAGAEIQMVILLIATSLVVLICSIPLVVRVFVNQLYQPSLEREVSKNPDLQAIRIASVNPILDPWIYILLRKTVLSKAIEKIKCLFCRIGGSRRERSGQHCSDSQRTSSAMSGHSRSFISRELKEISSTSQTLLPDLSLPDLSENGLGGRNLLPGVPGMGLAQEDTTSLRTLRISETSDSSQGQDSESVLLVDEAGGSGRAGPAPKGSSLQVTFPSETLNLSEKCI

The test has as its target EP4 (Homo sapiens, UniProt P35408). Briefly: EP4 Ca2+-flux assay (functional calcium flux assay, stably transfected HEK293 cells). The note with it: read-out: EP4 Ca2+-flux assay IC50; HEK293 cells stably transfected with EP4; ligand PGE2 10 nM; luminescence readout. The method, then:
The compounds in the present disclosure were tested in a functional calcium flux assay using stably transfected HEK293 cells. Cells transfected with EP1, EP2, EP3 and EP4 were purchased from Eurofins Discovery Services (St. Charles, Mo.). Each receptor subtype has an additional promiscuous G protein added in order to couple to the calcium signaling pathway. The parental cell line used also expresses a novel variant of clytin, a calcium-activated photo-protein, to enable sensitive luminescent detection.
Cells were plated at 50,000 cells per well in black, clear bottom 96-well plates. The plated cells were allowed to sit at room temperature for 30 min prior to transferring to a humidified, 37° C., 5% CO2 incubator for 18-24 h. Assay buffer (HBSS with 20 mM HEPES) and loading buffer (assay buffer plus 10 μM Coelenterazine) were prepared on the day of the assay. Assays were performed by aspirating media from the assay plate and washing once with assay buffer, then replacing with loading buffer and allowing the cells to incubate for 1.5 h at room temperature. Compounds were prepared in assay buffer at a 3× final concentration in non-binding plates. Compounds were added to the cell plates and incubated for 30 min at room temperature. The prostanoid receptor ligand PGE2 was prepared at a 4× dilution ratio for a final concentration of 10 nM. Plates were run on a Flexstation™ using a 100 ms integration luminescence protocol for a total of 60 sec with ligand addition at 15 sec. Data were obtained from relative light units as measured by area under the curve.
(In general: Calcium flux is commonly read through the fluorescence of an indicator in the cells.)
Turning to `O=C(NC1CC2(C1)CC(C(=O)O)C2)c1cccc2ccn(Cc3ccc(C(F)(F)F)cc3)c12` (single isomer, unassigned) [8, second eluting], the IC50 amounted to 0.19 nM.

Turning to `O=C(NC1CC2(C1)CC(C(=O)O)C2)c1cccc2ccn(Cc3ccc(C(F)(F)F)cc3)c12` (single isomer, unassigned) [8, first eluting], the IC50 amounted to 520 nM.

In the case of `O=C(NC1CC2(C1)CC(C(=O)O)C2)c1cncc2ccn(Cc3ccc(C(F)(F)F)cc3)c12` (single isomer, unassigned) [10, second eluting], the IC50 worked out at 0.13 nM.

On to `O=C(NC1CC2(C1)CC(C(=O)O)C2)c1ccc(F)c2ccn(Cc3ccc(C(F)(F)F)cc3)c12` (single isomer, unassigned) [20, first eluting], for which the IC50 was determined as 24 nM.

On to `O=C(NC1CC2(C1)CC(C(=O)O)C2)c1cncc2ccn(Cc3ccc(C(F)(F)F)cc3)c12` (single isomer, unassigned) [10, first eluting], for which the IC50 turned out to be 20 nM.

Take `O=C(NC1CC2(C1)CC(C(=O)O)C2)c1ccc(F)c2ccn(Cc3ccc(C(F)(F)F)cc3)c12` (single isomer, unassigned) [20, second eluting]: the IC50 was found to be 0.31 nM.

The values are drawn from patent publication US11066405B2, “Bicyclic compounds and their use in the treatment of cancer” (Tempest Therapeutics, Inc., priority 2017, dated 2021).
